{"source": "patent US20170087562A1", "about": "“METHOD FOR DETERMINING TREATMENT RESPONSE OF CELLS” (NATIONAL CHENG KUNG UNIVERSITY, priority 2015, published 2017)", "test_in_all_cases": "Electrorotation speed of cells before and after EGFR TKI treatment", "type_in_all_cases": "cell-based", "key": {"AS2 cells": {"test_system": "AS2 cells", "settings": "AS2, drug resistant, without EGFR mutation; before (0 hr) vs after (6 hrs)"}, "HCC827 cells": {"test_system": "HCC827 cells", "settings": "6 hours treatment"}, "H1975 cells": {"test_system": "H1975 cells", "settings": "H1975, drug resistant (acquired); before (0 hr) vs after (6 hrs)"}}, "data": [{"smiles": "COc1cc2ncnc(Nc3ccc(F)c(Cl)c3)c2cc1OCCCN1CCOCC1", "note": "[EGFR TKI]", "values": [{"measurement": "difference of electrorotation speeds before and after treatment", "setting": "AS2 cells", "result": "no significant difference"}, {"measurement": "electrorotation speeds after treatment versus before treatment", "setting": "HCC827 cells; HCC827, sensitive, with EGFR mutation", "result": "slower"}, {"measurement": "cell death at the time point of electrorotation", "setting": "HCC827 cells; HCC827", "result": "do not present significant cell death"}, {"measurement": "difference of electrorotation speeds before and after treatment", "setting": "H1975 cells", "result": "no significant difference"}]}]}
